Experimental findings from PMC12355554, “Development of novel mitochondrial pyruvate carrier inhibitors for breast cancer treatment” (The Journal of Biological Chemistry, 2025) are described below.

The chains behind the UniProt entries cited, without tags or fusion partners. Where a name states a change or a piece, a line headed by the entry shows the natural chain unless it says otherwise.
UniProt Q12809: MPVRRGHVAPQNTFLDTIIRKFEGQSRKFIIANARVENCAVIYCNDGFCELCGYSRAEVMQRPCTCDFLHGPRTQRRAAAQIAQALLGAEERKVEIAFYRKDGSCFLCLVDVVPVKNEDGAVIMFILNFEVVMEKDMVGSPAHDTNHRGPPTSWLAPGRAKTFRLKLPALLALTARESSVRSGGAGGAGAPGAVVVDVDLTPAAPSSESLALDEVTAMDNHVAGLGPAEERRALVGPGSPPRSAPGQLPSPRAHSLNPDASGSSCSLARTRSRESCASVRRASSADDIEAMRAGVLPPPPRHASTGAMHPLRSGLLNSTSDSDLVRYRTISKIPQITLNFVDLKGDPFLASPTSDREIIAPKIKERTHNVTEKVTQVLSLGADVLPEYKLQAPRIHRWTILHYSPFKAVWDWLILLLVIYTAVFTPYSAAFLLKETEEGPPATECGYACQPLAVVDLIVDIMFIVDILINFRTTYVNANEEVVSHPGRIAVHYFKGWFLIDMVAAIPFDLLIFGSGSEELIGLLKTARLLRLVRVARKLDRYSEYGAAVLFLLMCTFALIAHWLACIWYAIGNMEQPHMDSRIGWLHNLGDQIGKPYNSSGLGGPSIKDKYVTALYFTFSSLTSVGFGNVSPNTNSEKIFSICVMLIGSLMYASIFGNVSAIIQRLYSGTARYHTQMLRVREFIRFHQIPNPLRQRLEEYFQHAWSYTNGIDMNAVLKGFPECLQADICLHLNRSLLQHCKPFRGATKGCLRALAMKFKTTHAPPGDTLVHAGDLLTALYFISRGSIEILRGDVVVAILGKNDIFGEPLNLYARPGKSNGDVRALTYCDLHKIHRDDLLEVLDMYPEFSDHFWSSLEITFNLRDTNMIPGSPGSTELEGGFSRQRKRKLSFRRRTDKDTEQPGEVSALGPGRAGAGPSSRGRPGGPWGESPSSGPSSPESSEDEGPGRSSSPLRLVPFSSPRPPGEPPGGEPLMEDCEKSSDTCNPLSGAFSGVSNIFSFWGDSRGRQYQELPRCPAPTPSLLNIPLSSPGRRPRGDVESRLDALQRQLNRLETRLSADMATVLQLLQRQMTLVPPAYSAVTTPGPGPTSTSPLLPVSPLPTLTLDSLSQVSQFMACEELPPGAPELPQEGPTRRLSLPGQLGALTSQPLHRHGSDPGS

The subject of one data set is 67NR tumor. The data set is described as follows: Tumor efficacy study in a 67NR syngraft. The following applies: BALB/c, 5 mg/kg intraperitoneally once daily for 14 days.
Data set [1] concerns the target human Ether-a-go-go (hERG) potassium channels (Homo sapiens, UniProt Q12809). The data set is described as follows: hERG inhibition assay (ion channel electrophysiology). As to conditions: at concentrations that it inhibits the MPC.

On to `CN(Cc1ccc(C(F)(F)F)cc1)c1ccc2cc(C(=O)O)c(=O)oc2c1.NC(CO)(CO)CO` [C5, 1,3-dihydroxy-2-(hydroxymethyl)propan-2-aminium 7-(methyl(4-(trifluoromethyl)benzyl)amino)-2-oxo-2H-chromene-3-carboxylate], for which, in the data set on 67NR tumor, the “reduction in tumor mass compared with vehicle” value is roughly 71% and the “reduction in tumor volume compared with vehicle” value is on record as roughly 79%. Also, in data set [1], the “hERG channel function inhibition” value is reported as “did not inhibit”.
